Results taken from ChEMBL document CHEMBL1134376, “Structure-activity relationship studies of 4-[2-(diphenylmethoxy)ethyl]-1-benzylpiperidine derivatives and their N-analogues: evaluation of O-and N-analogues and their binding to monoamine transporters” (J Med Chem, 2001).

By UniProt entry, the sequences of proteins in these tests, tags left out.
UniProt Q9WTR4, whole entry: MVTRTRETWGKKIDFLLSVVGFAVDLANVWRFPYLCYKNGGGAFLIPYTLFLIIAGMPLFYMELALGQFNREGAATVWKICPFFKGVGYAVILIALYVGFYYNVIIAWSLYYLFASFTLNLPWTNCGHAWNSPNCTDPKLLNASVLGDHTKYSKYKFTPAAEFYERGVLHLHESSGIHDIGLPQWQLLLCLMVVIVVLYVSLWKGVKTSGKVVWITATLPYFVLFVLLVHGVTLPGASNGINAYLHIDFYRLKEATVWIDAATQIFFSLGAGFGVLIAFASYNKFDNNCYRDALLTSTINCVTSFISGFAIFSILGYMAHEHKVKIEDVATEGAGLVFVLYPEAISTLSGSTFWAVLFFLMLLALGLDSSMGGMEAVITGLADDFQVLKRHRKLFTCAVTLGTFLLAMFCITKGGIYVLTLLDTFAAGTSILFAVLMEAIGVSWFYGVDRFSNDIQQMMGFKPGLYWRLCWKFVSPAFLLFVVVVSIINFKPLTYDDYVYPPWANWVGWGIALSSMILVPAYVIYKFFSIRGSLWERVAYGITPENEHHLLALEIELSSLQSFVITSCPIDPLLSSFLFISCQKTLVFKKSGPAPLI

Key:
[1] = target: Norepinephrine transporter (Rattus norvegicus, UniProt Q9WTR4); assay: Affinity at norepinephrine transporter (NET) in rat striatum, using [3H]- nisoxatine as radioligand; type: tissue-based
[2] = target: Sodium-dependent dopamine transporter (Rattus norvegicus) (UniProt P23977); assay: Ratio of ([3H]-DA uptake) / [3H]WIN-35428 binding was determined in […]

Row | SMILES | IC50 [1] [µM] | Ratio [2]
1 | COC(=O)[C@H]1[C@@H](OC(=O)c2ccccc2)C[C@@H]2CC[C@H]1N2C [COCAINE] | 3.53 | 
2 | N#Cc1ccc(CN2CCC(CCOC(c3ccccc3)c3ccccc3)CC2)cc1 |  | 1.23
